Data from US20040043043A1, “Preparation of emulsions and concentrates thereof” (priority 2000, published 2004).

How the values were obtained:
[1] = Chemical stability study: vitamin contents on storage at 20 °C/ambient RH; settings: Example 4 syrup, two batches
[2] = as above; settings: for Content after 18 months: Example 4 syrup; for Initial content: Example 4 vitamin and mineral syrup

## Iron
[1]
  Recovery (initial versus nominal): 106.5%
[2]; batch 1, 20 °C/ambient RH
  Content after 18 months: 10.6, 10.6 mg/5 ml
[2]; batch 2, 20 °C/ambient RH
  Content after 18 months: 10.6, 10.6 mg/5 ml
[2]; batch 1, time 0
  Initial content: 10.9 mg/5 ml
[2]; batch 2, time 0
  Initial content: 10.4 mg/5 ml
